Patent US20260193179A9
Only a part of the results on these compounds is given; other tests are left out.

Molecular target: Thrombin (Homo sapiens, UniProt P00734)
Experiment: Thrombin inhibition
Assay type: biochemical

n1nc2c([nH]1)c1nn[nH]c1c1nn[nH]c21
Thrombin Ki (μM): No Activity
